Data from PubChem BioAssay (NCI).
Only a part is listed here, and it is no random draw. The source made the active and inactive calls. Rule as the data show it: active = growth inhibition above about 70%; inactive = the rest.

Experiment: NCI Yeast Anticancer Drug Screen. Data for the mlh1 rad18 strain (AID 175)
Details: S. cerevisiae mlh1 rad18 strain growth inhibition; at 50.0 µM; hits give high values
In the case of `c1ccc(CN2CCC(Nc3ccccc3)CC2)cc1`, the growth inhibition was inactive: 44%. In the case of `CC(Cl)CN(CC(C)Cl)c1ccc2ccccc2c1` (stereo not drawn), the growth inhibition was inactive: -22.1%. In the case of `Cc1cc(C)c2nc(CN(CCCl)CCCl)[nH]c2c1`, the growth inhibition was inactive: 2.4%. In the case of `Cc1ccc(NC2(C(N)=O)CCNCC2)cc1`, the growth inhibition was inactive: -1.4%. For `Cc1ccc(N(CCBr)CCBr)cc1`, the growth inhibition was inactive: 13.8%. In the case of `COc1ccccc1N(CCCl)CCCl`, the growth inhibition was inactive: 0%. In the case of `O=C(O)CCOc1ccccc1N(CCCl)CCCl`, the growth inhibition was inactive: -10.8%. In the case of `O=C1CCNCC1`, the growth inhibition was inactive: 1.6%. For `Nc1c(Cl)cc(CN(CCCl)CCCl)cc1Cl`, the growth inhibition was inactive: 13.5%. For `CC(C)NP(=O)(F)NC(C)C`, the growth inhibition was inactive: -5.85%. In the case of `Nc1cc([As](Cl)Cl)ccc1O`, the growth inhibition was inactive: 41.3%. With `O=C(O)CN(CCCl)CCCl` the growth inhibition was inactive: 6.65%. With `Fc1cccc(CBr)c1` the growth inhibition was inactive: 3.3%. For `ClCCSC(SCCCl)=C(SCCCl)SCCCl`, the growth inhibition was inactive: 20.6%. In the case of `Cc1cc(N(CCCl)CCCl)ccc1C=C(C#N)C#N`, the growth inhibition was inactive: -6.25%. In the case of `Cc1ccc(NC2(C#N)CCN(Cc3ccccc3)CC2)cc1`, the growth inhibition was inactive: -22%. For `CCOc1ccc(N(CCCl)CCCl)cc1`, the growth inhibition was inactive: -19.4%. In the case of `COc1cccc(N(CCCl)CCCl)c1`, the growth inhibition was inactive: 19.4%. With `O=P(Cl)(Cl)N(CCF)CCCl` the growth inhibition was inactive: -15%. With `O=C1NC(=NC2CCCCC2)C2(CCN(CCc3ccccc3)CC2)N1c1ccccc1` the growth inhibition was inactive: -16.9%. In the case of `COC(=O)c1ccc(C)c(N(CCCl)CCCl)c1`, the growth inhibition was inactive: -42.4%. For `CCC1C(OC(=O)CC(O)(c2ccccc2)c2ccccc2)C2CCN1CC2` (stereo not drawn), the growth inhibition was inactive: 16.9%. With `CN(CCCl)CC(Cl)c1cccc(C(F)(F)F)c1` (stereo not drawn) the growth inhibition was inactive: 12.1%. For `O=c1[nH]c2ccccc2n1C1CCN(Cc2ccccc2)CC1`, the growth inhibition was inactive: -1.1%. For `Nc1cc([As](I)I)ccc1O`, the growth inhibition was inactive: 61%. For `O=NN(CCSCCCl)C(=O)NC1CCCCC1`, the growth inhibition was inactive: 9.35%. For `CCC(=O)N(c1ccccc1)C1CCNCC1`, the growth inhibition was inactive: -27.8%. In the case of `COc1ccc([N+](=O)[O-])cc1CN(CCBr)CCBr`, the growth inhibition was inactive: 22.4%. With `O=C1CCN(CCc2ccccc2)CC1` the growth inhibition was inactive: 15.3%. For `O=C(O)C1(Nc2ccccc2)CCN(Cc2ccccc2)CC1`, the growth inhibition was inactive: 0.7%. With `CCCCCCCCC(=O)OCC(COP(=O)(Oc1ccccc1)N(CCCl)CCCl)OC(=O)CCCCCCCC` (stereo not drawn) the growth inhibition was inactive: 13.3%. For `NS(=O)(=O)c1ccc(N(CCCl)CCCl)cc1`, the growth inhibition was inactive: 5.6%. In the case of `Cn1c(S(C)=O)cnc1COC(=O)N(CCCl)CCCl` (stereo not drawn), the growth inhibition was inactive: -16.2%. In the case of `CC1(C)OCC(COP(N)(=O)N(CCCl)CCCl)O1` (stereo not drawn), the growth inhibition was active: 90.6%. With `O=C(OC1CN2CCC1CC2)C1(c2ccccc2)COc2ccccc21` (stereo not drawn) the growth inhibition was inactive: -29.2%. With `CCCOP(O)OCCC` the growth inhibition was inactive: -26.4%. For `Cc1ccc(N(CCCl)CCCl)cc1`, the growth inhibition was inactive: -37.5%. In the case of `ClCCN(CCCl)c1ccccc1`, the growth inhibition was inactive: 9.7%.
